{
  "source": "paper PMC5671894",
  "about": "(Journal of biological inorganic chemistry : JBIC : a …, 2017)",
  "origin": "cited, not measured here",
  "target": "PTP1B",
  "settings": "competitive inhibitor; cited from earlier work",
  "data": [
    {"smiles": "[O]=[V]([OH])([OH])[OH]", "note": "[orthovanadate]", "values": [
      {"measurement": "Ki", "value": "~0.3", "unit": "µM"}
    ]}
  ]
}
